ChEMBL document CHEMBL1133625, “Crystal structures of human factor Xa complexed with potent inhibitors” (J Med Chem, 2000)

Biological target: T1, Trypsin II (Bos taurus, UniProt Q29463)
T1 sequence (Q29463 whole entry): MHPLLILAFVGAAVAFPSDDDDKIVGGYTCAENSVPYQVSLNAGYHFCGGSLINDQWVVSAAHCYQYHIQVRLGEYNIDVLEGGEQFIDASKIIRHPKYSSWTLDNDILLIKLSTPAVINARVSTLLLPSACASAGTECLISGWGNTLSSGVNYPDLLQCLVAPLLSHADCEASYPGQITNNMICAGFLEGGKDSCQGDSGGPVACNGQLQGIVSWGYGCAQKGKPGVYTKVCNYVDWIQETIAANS
Assay: Binding affinity on bovine pancreatic trypsin enzyme

Ki: 1 µM
SMILES: N=C(N)c1ccc(O)c(CN2CC[C@H](NS(=O)(=O)c3cc4ncccc4s3)C2=O)c1
